Our source for the Potency values is PubChem BioAssay AID1645870 (National Center for Advancing Translational Sciences (NCATS), 2021).

Protein sequences, listed by entry. Tags and fused reporters are not part of them.
UniProt Q9BV86, whole entry: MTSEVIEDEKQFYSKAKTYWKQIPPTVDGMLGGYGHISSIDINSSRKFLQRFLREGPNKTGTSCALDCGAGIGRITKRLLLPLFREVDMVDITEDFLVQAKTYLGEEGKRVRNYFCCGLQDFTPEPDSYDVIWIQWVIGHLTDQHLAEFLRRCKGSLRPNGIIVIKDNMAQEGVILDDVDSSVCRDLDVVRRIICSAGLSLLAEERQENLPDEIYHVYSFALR

Each structure is given as a SMILES string. The entries are a selection whose mix differs from that of the whole data set. Inconclusive results are not listed. Calls of active or inactive are those of the source. Calls come from the whole dose curve; as a rule, active = well fitted inhibition curve with a large enough effect; inconclusive = small, poorly fitted or top-dose-only effect; inactive = flat fitted curve, though single readings scatter.
Potency is the fitted concentration of half-maximal effect.

In the assay the target is N-terminal Xaa-Pro-Lys N-methyltransferase 1 (Homo sapiens) (UniProt Q9BV86). The assay is described as follows: Primary qHTS for Inhibitors of N-terminal methyltransferase 1 (NTMT1): MTaseGlo Assay. Note: nearly all actives have a fitted effect of over 65% in size. Conditions: NTMT1 MTase-Glo SAH luminescence, purified enzyme. The text has this: Assay Submitter (PI): Rong Huang Ph.D.
Purdue University, West Lafayette, IN 47907
The N-terminal methytransferase 1 is the first methyltransferase that methylates protein alpha-N-amines and plays an important role in regulating cell mitosis, chromatin interactions and DNA repair. It is observed to be over-expressed in various cancer patient tissues like malignant melanoma and colorectal cancer tissues. Knockdown of NTMT1 in cancer cells causes cell mitotic defects and enhances sensitivity to DNA damaging chemotherapeutics. […] These critical cellular processes in which NTMT1 is implicated, coupled with emerging links to cellular dysfunction, strengthen the inference that NTMT1 is a compelling novel anticancer target. […] To address this unmet need, a panel of assay is created and established to enable quantitative high-throughput screening (qHTS) for novel, potent, and selective small molecule NTMT1 inhibitors. […]
MTaseGlo Assay is a luminescence screen that measure the activity of methyltransferases based on the reaction product S-adenosyl homocysteine (SAH). […]
8; Reagent; 5 uL; Dispense 5 uL of 1x MTase-Glo Detection Solution (R) to allow for ADP to be converted to ATP which was then detected with a luciferase reaction. […]
11; Detection; Luminescence; Plates were read on ViewLux detector (PerkinElmer). […]
For orientation: qHTS replaces the single test concentration by a dilution series.
Turning to `C/C1=C2N=C(/C=C3N=C(/C(C)=C4\[N-][C@@](C)([C@@H]5N=C1[C@](C)(CCC(=O)NC[C@@H](C)OP(=O)([O-])O[C@H]1[C@@H](O)[C@@H](n6cnc7cc(C)c(C)cc76)O[C@@H]1CO)[C@H]5CC(N)=O)[C@@](C)(CC(N)=O)[C@@H]4CCC(N)=O)[C@@](C)(CC(N)=O)[C@@H]\3CCC(N)=O)C(C)(C)[C@@H]/2CCC(N)=O.[C-]#N.[Co+3]`, the Potency was active: 28.2 µM.
